# Test system: U87EGFRvIII cells
# Details: upon drug treatment
# Procedure: A multiplex assay incorporating the glutamine uptake assay according to embodiments of the present invention was performed using a SCBC platform in U87 human glioblastoma cells having amplified epidermal growth factor receptor (EGFR) expression.
# U87/EGFRV3 cells were provided by Prof. Paul S. Mischel (UCSD, San Diego, U.S.A.) and cultured in Dulbecco's modified eagle media (DMEM, Gibco, ThermoFisher Scientific, Grand Island, N.Y., U.S.A.) supplemented with 10% of fetal bovine serum (Thermo Fisher Scientific) and 100 U/mL of penicillin and streptomycin in a humidified 5% CO2 (v/v) incubator, at 37° C.
# In order to better understand the integrated single cell metabolic/proteomic data, a simplified semi-quantitative metabolic model (FIG. 16A) was developed. The focus of this model includes the glycolysis pathway and the TCA cycle, which cover the major contributors of cellular energy generation. Glucose is used by cells for many tasks, but by combining the measurement of glucose uptake with measurements of those enzymes that process glucose for energy production and lactate production, an estimation may be made of the contributions of glucose to glycolysis and to the TCA cycle (FIGS. 16A-16B). It assumed that each glucose molecule consumed yields 8 ATP equivalents through glycolysis, and an additional 22 ATP equivalents through the TCA cycle. […]
smiles,measurement,value
C#Cc1cccc(Nc2ncnc3cc(OCCOC)c(OCCOC)cc23)c1 [erlotinib],energy frustration index (EFI),increase
same,redox frustration index (RFI),increase

# Reference: patent publication US11353448B2, “Methods and compositions for quantifying metabolites and proteins from single cells” (CALIFORNIA INSTITUTE OF TECHNOLOGY, priority 2015, dated 2022)
